The experiment has as its target T1, LRAT (Bos taurus, UniProt Q9BGL2).
T1 construct: followed by approximately 15 μg of RPE microsomal protein; tissue W. L. Lawson Co; host or cells: bovine retinal pigment epithelium microsomes
T1 sequence (Q9BGL2 1-230): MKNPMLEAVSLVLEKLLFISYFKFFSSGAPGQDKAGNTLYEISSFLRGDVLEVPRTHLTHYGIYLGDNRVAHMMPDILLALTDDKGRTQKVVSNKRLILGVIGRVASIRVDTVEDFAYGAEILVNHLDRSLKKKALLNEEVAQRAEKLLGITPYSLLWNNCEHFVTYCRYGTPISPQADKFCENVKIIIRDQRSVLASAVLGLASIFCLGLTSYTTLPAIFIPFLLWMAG
Briefly: LRAT activity assay, RPE microsomes (to identify B1). Type of experiment: biochemical, bovine. The conditions noted are these: for % Inhibition LRAT (100 μm): compound 100 μm.

This is an account of results in patent US6881414B2, “Mild cosmetic composition with stabilized retinoids” (Unilever Home & Personal Care USA, division of Conopco, Inc., priority 2000, dated 2005).

SMILES strings stand for the structures.

`CC(C)(O)CCCC1=CCC(C=O)CC1` (stereo not drawn) [Lyral]: the “% Inhibition LRAT (100 μm)” value came to 71%. Regarding `CCCCCCCCCCCCCCCC(=O)NCCO` [Palmitamide-MEA], the “% Inhibition LRAT (10 μm)” value (compound 10 μm) came out at 12%. `C[C@H]1[C@H](C)CC[C@]2(C(=O)O)CC[C@]3(C)C(=CC[C@@H]4[C@@]5(C)CC[C@H](O)C(C)(C)[C@@H]5CC[C@]43C)[C@H]12` [Urosolic Acid]: the “% Inhibition LRAT (100 μm)” value turned out to be 28%.
